Read-outs that look alike come from different tables or passages of the source.

The chains behind the UniProt entries cited, without tags or fusion partners. Where a name states a change or a piece, a line headed by the entry shows the natural chain unless it says otherwise.
UniProt P01116: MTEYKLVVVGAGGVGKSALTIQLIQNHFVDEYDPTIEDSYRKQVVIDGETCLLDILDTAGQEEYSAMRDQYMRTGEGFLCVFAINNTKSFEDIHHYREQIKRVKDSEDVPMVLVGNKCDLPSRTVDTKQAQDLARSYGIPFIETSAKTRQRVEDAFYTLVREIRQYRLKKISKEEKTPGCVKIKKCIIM

A word on the IC50: it is the point on the concentration scale where inhibition reaches its midpoint.

The target in assay [1] is K-Ras G12D (Homo sapiens, UniProt P01116, G12D). The assay is described as follows: SOS1 catalyzed nucleotide exchange assay (GDP form K-Ras), TR-FRET. Particulars: read-out: Biochemical assays, IC50, K-Ras G12D GDP. For orientation: In TR-FRET formats the signal depends on donor and acceptor labels being close together.
For assay [2], the target named is K-Ras G13D (Homo sapiens, UniProt P01116, G13D). As to the kind of experiment: GTP-K-Ras (GppNp-K-Ras) and cRAF interaction assay, HTRF. The following applies: read-out: Biochemical assays, IC50, K-Ras G13D GppNp. From the text: GppNp is an analog of GTP.
Assay [3] concerns SW620 cell line (K-Ras G12V). The assay is described as follows: Phospho-ERK1/2(THR202/TYR204) HTRF assay. In kind it is cell-based. Particulars: Homo sapiens, SW-620; SW620 cells (K-Ras G12V), 2 hours incubation; read-out: p-ERK, IC50(nM) SW620.
Assay [4] relates to NCI-H358 cell line (K-Ras G12C). As to the kind of experiment: Phospho-ERK1/2(THR202/TYR204) HTRF assay. The assay is classed as cell-based. Particulars: Homo sapiens; NCI-H358 cells (K-Ras G12C), 2 hours incubation; read-out: p-ERK, IC50(nM) NCI-H358.
Assay [5] relates to NCI-H747 cell line (K-Ras G13D). The assay is described as follows: Phospho-ERK1/2(THR202/TYR204) HTRF assay. Particulars: Homo sapiens; NCI-H747 cells (K-Ras G13D), 2 hours incubation; read-out: p-ERK, IC50(nM) NCI-H747. In kind it is cell-based.
In assay [6] the test system is K-Ras mutant and K-Ras WT cell lines indicated in Table 20. As to the kind of experiment: 3D cell growth inhibition assay (CellTiter-Glo 3D, 6 days). Particulars: Homo sapiens, 144 h. The assay is classed as cell-based. (In general: Cellular ATP, detected with luciferase, serves as a proxy for viable cell number.)
Assay [7] has as its system AGS cell line (K-Ras G12D). The assay is described as follows: Phospho-ERK1/2(THR202/TYR204) HTRF assay. In kind it is cell-based. Particulars: Homo sapiens; AGS cells (K-Ras G12D), 2 hours incubation; read-out: p-ERK, IC50(nM) AGS.
The mark [8] stands for this setting: Capan-2 (K-Ras G12V), absolute IC50, read-out: Cell Growth Inhibition, IC50, Capan-2.
The mark [9] stands for this setting: NCI-H747 (K-Ras G13D), absolute IC50, read-out: Cell Growth Inhibition, IC50, NCI-H747.

Turning to `C#Cc1c(F)ccc2cc(O)cc(-c3ncc4c(N(C)[C@@H]5C[C@H]5F)nc(OC[C@@]56CCCN5C[C@H](OC)C6)nc4c3F)c12` (mixture of isomers) [Compound 5, 5-ethynyl-6-fluoro-4-(8-fluoro-4-((trans-2-fluorocyclopropyl)(methyl)amino)-2-(((2R,7aS)-2-methoxytetrahydro-1H-pyrrolizin-7a(5H)-yl)methoxy)pyrido[4,3-d]pyrimidin-7-yl)naphthalen-2-ol], the half-maximal inhibitory concentration (IC50) stood at 2.84 nM in assay [1]; 6.29 nM in assay [2]; 7.37 nM in assay [3]; 17.4 nM in assay [4]; 26.2 nM in assay [5]; 124 nM in assay [6] (setting [8]). Also, the IC50 in assay [6] (setting [9]) is 89.1 nM.
`[2H]C([2H])([2H])N(c1nc(OC[C@@]23CCCN2C[C@H](F)C3)nc2c(F)c(-c3cc(O)cc4ccc(F)c(C#C)c34)ncc12)C1CC1` [Compound 4, 4-(4-(cyclopropyl(methyl-d3)amino)-8-fluoro-2-(((2R,7aS)-2-fluorotetrahydro-1H-pyrrolizin-7a(5H)-yl)methoxy)pyrido[4,3-d]pyrimidin-7-yl)-5-ethynyl-6-fluoronaphthalen-2-ol]: the IC50 in assay [1] is 3.41 nM; in assay [2] it was 13.7 nM; in assay [7], 27 nM; in assay [3], 10 nM; in assay [5], 11.5 nM; in assay [6] (setting [8]) it was 72.1 nM. The IC50 in assay [6] (setting [9]) was found to be 59.6 nM.
Regarding `C#Cc1c(F)ccc2cc(O)cc(-c3ncc4c(N(CC)[C@@H]5C[C@H]5F)nc(OC[C@@]56CCCN5C[C@H](F)C6)nc4c3F)c12.O=C(O)C(F)(F)F` (mixture of isomers) [Compound 6, 4-(4-(ethyl(trans-2-fluorocyclopropyl)amino)-8-fluoro-2-(((2R,7aS)-2-fluorotetrahydro-1H-pyrrolizin-7a(5H)-yl)methoxy)pyrido[4,3-d]pyrimidin-7-yl)-5-ethynyl-6-fluoronaphthalen-2-ol 2,2,2-trifluoroacetic acid], the concentration for half-maximal inhibition (IC50) stood at 1.32 nM in assay [1], 7.9 nM in assay [5], 121 nM in assay [6] (setting [8]) and 22.9 nM in assay [6] (setting [9]).

For the origin of these results see patent US20240376128A1, “N-CYCLOPROPYLPYRIDO [4, 3-D] PYRIMIDIN-4-AMINE DERIVATIVES AND USES THEREOF” (Jacobio Pharmaceuticals Co., Ltd., priority 2021, published 2024).
